Data as given in patent publication US20260384438A1, “PYRROLOPYRIMIDINE CARBOXAMIDES” (published 2026).
Where “and” joins values, the source holds several entries; their conditions need not be identical. Identical values can stand only once. Like-named read-outs stand apart in the source and are kept apart here.

Sequences of proteins named here, by UniProt entry; tags and fusion partners are left off. Residues count along the entry.
UniProt P05177, whole entry: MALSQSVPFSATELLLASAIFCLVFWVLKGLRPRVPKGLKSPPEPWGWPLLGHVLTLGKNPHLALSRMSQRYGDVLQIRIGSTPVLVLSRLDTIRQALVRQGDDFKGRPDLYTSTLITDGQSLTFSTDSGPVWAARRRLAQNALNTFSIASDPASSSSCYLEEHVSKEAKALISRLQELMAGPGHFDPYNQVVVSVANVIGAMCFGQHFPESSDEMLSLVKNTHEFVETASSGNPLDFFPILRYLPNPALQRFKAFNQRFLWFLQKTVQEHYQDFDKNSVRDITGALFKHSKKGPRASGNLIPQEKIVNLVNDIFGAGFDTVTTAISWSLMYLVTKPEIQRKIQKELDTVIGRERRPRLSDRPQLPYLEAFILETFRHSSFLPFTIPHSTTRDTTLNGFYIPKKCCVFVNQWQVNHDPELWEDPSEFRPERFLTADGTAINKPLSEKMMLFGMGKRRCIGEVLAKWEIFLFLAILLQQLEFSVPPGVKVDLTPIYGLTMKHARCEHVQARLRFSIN
UniProt P06213, 28-1382 limits assumed: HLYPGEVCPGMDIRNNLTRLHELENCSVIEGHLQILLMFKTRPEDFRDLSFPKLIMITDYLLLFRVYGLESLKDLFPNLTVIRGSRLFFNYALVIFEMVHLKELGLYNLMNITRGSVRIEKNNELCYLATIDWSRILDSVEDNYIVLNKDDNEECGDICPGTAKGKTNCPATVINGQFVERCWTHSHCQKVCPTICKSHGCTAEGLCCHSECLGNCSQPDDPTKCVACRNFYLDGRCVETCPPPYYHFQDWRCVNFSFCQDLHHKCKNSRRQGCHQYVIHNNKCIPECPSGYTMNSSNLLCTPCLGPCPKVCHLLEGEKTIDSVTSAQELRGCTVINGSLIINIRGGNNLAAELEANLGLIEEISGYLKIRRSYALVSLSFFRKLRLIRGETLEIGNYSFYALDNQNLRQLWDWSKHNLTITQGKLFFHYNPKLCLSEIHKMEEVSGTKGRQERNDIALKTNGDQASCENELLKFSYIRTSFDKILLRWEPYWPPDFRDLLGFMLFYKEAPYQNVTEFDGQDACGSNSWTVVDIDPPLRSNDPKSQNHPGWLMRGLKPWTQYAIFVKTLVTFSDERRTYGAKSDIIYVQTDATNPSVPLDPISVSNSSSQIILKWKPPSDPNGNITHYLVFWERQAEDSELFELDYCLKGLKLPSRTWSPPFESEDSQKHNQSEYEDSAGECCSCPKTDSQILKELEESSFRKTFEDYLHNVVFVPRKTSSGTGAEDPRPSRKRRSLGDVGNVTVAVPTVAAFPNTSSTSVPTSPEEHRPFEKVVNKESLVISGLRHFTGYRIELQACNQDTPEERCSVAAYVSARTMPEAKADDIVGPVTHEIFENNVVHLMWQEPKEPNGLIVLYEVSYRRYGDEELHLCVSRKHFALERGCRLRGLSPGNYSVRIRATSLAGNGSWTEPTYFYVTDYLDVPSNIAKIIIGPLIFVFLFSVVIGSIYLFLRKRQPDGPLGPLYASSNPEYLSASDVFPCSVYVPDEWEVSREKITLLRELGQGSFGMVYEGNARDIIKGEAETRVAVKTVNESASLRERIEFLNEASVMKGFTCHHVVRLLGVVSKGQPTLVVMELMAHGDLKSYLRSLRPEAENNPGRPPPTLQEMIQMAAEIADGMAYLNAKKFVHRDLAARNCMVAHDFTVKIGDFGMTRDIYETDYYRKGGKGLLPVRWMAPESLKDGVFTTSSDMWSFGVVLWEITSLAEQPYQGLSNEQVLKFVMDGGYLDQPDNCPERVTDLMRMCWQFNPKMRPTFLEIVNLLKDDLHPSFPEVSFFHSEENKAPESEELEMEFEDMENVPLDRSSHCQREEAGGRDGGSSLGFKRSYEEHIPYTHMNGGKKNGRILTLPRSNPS
UniProt P04629, 33-796 limits assumed: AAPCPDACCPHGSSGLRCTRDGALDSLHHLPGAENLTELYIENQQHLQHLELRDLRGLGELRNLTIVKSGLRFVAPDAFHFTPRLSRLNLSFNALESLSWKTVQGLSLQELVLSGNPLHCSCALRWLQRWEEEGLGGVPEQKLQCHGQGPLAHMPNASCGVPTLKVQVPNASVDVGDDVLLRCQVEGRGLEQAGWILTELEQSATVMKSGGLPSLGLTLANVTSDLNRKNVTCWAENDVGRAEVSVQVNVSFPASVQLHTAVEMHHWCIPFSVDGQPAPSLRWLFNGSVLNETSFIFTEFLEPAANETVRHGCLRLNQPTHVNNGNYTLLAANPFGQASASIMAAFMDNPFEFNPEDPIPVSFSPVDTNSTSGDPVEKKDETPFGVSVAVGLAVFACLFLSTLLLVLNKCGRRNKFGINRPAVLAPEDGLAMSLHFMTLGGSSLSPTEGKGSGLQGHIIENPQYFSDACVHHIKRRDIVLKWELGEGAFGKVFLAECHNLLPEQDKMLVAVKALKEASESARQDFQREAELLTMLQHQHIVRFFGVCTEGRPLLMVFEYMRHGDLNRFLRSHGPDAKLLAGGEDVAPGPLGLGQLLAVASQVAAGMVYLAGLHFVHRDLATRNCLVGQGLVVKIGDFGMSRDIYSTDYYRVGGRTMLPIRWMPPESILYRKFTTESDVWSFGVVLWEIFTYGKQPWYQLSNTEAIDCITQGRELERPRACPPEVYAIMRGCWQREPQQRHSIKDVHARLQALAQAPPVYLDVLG
UniProt P24557, whole entry: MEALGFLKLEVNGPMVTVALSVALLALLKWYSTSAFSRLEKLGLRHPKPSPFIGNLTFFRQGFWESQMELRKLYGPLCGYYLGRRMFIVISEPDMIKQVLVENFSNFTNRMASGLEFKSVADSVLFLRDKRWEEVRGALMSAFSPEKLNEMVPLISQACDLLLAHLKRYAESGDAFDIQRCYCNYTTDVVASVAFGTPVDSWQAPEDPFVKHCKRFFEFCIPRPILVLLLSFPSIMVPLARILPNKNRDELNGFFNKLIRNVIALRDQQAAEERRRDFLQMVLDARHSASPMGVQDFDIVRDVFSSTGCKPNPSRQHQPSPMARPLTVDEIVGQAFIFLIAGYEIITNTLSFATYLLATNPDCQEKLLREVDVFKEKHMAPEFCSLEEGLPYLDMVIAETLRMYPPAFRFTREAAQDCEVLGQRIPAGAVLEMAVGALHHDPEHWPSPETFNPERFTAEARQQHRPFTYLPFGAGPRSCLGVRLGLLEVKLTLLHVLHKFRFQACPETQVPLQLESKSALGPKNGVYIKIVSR

Experiments:
[1] = In vivo tolerability, combination with gemcitabine, female SCID mice
[2] = system: PKMYT1 KO SKOV3 cells; test: In vitro efficacy in combination with exatecan, PKMYT1 KO SKOV3; conditions: with exatecan 1 nM, 7 days
[3] = In vitro biotransformation in dog hepatocytes; conditions: 5 μM, 180 min
[4] = system: PKMYT1; test: In vivo PKMYT1 target engagement (tumor phospho-CDK1 Thr14) in OVCAR3 tumor-bearing SCID mice; conditions: 10, 30, 100 mg/kg BID oral, all three doses, 21 days
[5] = system: SKOV3 PKMYT1 KO (H2); test: CellTiter-Glo growth inhibition, SKOV3 PKMYT1 KO (H2)
[6] = biological target: CYP1A2 (Homo sapiens, UniProt P05177); test: CYP inhibition, CYP1A2; conditions: read-out: CYP1A2 inhibition IC50; HLM, phenacetin 30 μM
[7] = biological target: Insulin receptor kinase (IRK) (Homo sapiens, UniProt P06213); test: Secondary pharmacology, enzyme
[8] = biological target: Neurotrophic receptor kinase 1 (NTRK1) (Homo sapiens, UniProt P04629); test: Secondary pharmacology, enzyme
[9] = system: Phosphodiesterase PDE3; test: Secondary pharmacology, enzyme
[10] = biological target: Thromboxane A2 synthase (Homo sapiens, UniProt P24557); test: Secondary pharmacology, enzyme
[11] = biological target: V-src sarcoma Kinase (Homo sapiens, UniProt P12931); test: Secondary pharmacology, enzyme

**Q.** For Cc1nc(C(F)(F)F)c2c(C(N)=O)c(N)n(-c3c(C)ccc(O)c3C)c2n1 (single isomer, unassigned), which “body weight loss, paw or tail swelling, adverse events” value ([1]; 100 mg/kg BID + gemcitabine 20 mg/kg weekly, 28 days) is on record?
**A.** The value was “No significant loss of body weight, paw or tail swelling, or other noticeable adverse events”.

**Q.** What about the “free Cmax” value ([1]; 100 mg/kg BID oral, with gemcitabine, SCID mice) of the same molecule?
**A.** Its value is “approximately 5.7 μM”.

**Q.** What about the “added effect on exatecan (1 nM) activity” value [2] of the same molecule?
**A.** Its value is “did not improve further”.

**Q.** And the Glucuronidation [3]?
**A.** Its Glucuronidation is “M (Major (>10%))”.

**Q.** What about the Oxidation [3] of the same molecule?
**A.** The Oxidation was “M (Major (>10%))”.

**Q.** What about the “PKMYT1 kinase inhibition versus vehicle” value [4] of the same molecule?
**A.** The value was “significant PKMTYT1 kinase inhibition”.

**Q.** And the GI50 ([5]; read-out: GI50 VALUES, individual values, 7 days CTG)?
**A.** Its GI50 is 26.4 µM and 23.8 µM and 16.9 µM.

**Q.** What about the GI50 ([5]; read-out: MEAN GI50 (N = 3), mean of N = 3, 7 days CTG) of the same molecule?
**A.** The GI50 was 22.4 µM.

**Q.** And the IC50 [6]?
**A.** Its IC50 is > 30 µM.

**Q.** What about the “Pharmacological mode of action” value [7] of the same molecule?
**A.** Its value is “Inactive”.

**Q.** What about the IC50 ([7]; read-out: Enzyme IC50) of the same molecule?
**A.** The IC50 was > 100 µM.

**Q.** And the “Pharmacological mode of action” value [8]?
**A.** Its value is “Inactive”.

**Q.** And the IC50 ([8]; read-out: Enzyme IC50)?
**A.** The IC50 was > 100 µM.

**Q.** And the “Pharmacological mode of action” value [9]?
**A.** The value was “Inactive”.

**Q.** What about the IC50 ([9]; read-out: Enzyme IC50) of the same molecule?
**A.** The IC50 was > 100 µM.

**Q.** What about the “Pharmacological mode of action” value [10] of the same molecule?
**A.** Its value is “Inhibitor”.

**Q.** What about the IC50 ([10]; read-out: Enzyme IC50) of the same molecule?
**A.** The IC50 was 90 µM.

**Q.** What about the “Pharmacological mode of action” value [11] of the same molecule?
**A.** The value was “Inhibitor”.

**Q.** What about the IC50 ([11]; read-out: Enzyme IC50) of the same molecule?
**A.** The IC50 was 0.15 µM.
